Experimental data reported in PubChem BioAssay AID1745845 (National Center for Advancing Translational Sciences (NCATS), 2022).
This is a selection; strong and weak results do not stand in their true shares. Inconclusive results are not listed. Active and inactive are the calls of the source. Calls come from the whole dose curve; as a rule, active = well fitted inhibition curve with a large enough effect; inconclusive = small, poorly fitted or top-dose-only effect; inactive = no such curve, though single readings can be large or run the other way.

Experiment: Primary qHTS for Inhibitors of ATXN expression; note: nearly all actives have a fitted effect of over 55% in size
Conditions: HEK-293 ATXN2-luciferase reporter, luminescence, 24 h
% is set by controls: 0 for no effect and ±100 for the full control effect.

Row | Structure (SMILES) | activity change, negative = inhibition (at 57 µM (top of the series)) | activity change, negative = inhibition (at 116 µM (top of the series))
1 | CCC(=O)N(c1ccccc1)C1(COC)CCN(CCn2nnn(CC)c2=O)CC1 | inactive: 4.99% | inactive: 32.4%
2 | CCC(=O)N(c1ccccc1)C1(COC)CCN(CCc2cccs2)CC1 | inactive: -12% | inactive: 4.18%
